From ChEMBL document CHEMBL5108012, “Discovery of 2,5-diphenyl-1,3,4-thiadiazole derivatives as HDAC inhibitors with DNA binding affinity” (Eur J Med Chem, 2022)
pIC50: −log10 of the molar value.

Biological target: T1, Histone deacetylase 8 (Homo sapiens, UniProt Q9BY41)
T1 sequence (Q9BY41 whole entry): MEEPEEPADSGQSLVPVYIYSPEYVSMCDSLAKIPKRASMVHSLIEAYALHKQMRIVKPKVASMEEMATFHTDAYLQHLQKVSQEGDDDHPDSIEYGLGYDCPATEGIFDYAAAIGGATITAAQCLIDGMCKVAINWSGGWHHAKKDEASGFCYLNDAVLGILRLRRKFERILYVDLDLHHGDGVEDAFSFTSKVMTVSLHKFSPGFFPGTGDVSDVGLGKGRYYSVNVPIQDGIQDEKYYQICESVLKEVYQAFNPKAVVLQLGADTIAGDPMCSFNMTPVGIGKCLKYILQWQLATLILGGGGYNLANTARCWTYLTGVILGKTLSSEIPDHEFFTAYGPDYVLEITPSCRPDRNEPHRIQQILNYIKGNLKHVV
Assay: Inhibition of HDAC8 in human HeLa cell nuclear extract using Boc-Lys(Ac)-AMC or Boc-Lys(triflouroacetyl)-AMC as substrate incubated for 30 mins and measured by fluorescence assay
Assay type: cell-free

## O=C(CCCCCCC(=O)Nc1ccccc1)NO [VORINOSTAT]
  pIC50: 5.41
